Molecular target: ER beta (Homo sapiens, UniProt Q92731)
Assay: competition binding assay against a model linear peptide sequence (estrogen receptor-coactivator interaction), ER beta
Conditions: competition binding assay (Lilly Research Labs); read-out: Ki ER β
Protocol: The synthetic helicormimetic peptides designed as antagonists of the estrogen receptor-coactivator interactions were tested in a competition binding assay (Lilly Research Labs) against a model linear peptide sequence. Activities are reported in the Table below in Ki values, with two of the best analogs labeled as PERM-1 and PERM-2, or Peptidomimetic Estrogen Receptor Modulators.

Protein sequences, listed by entry. Tags and fused reporters are not part of them.
UniProt Q92731, whole entry: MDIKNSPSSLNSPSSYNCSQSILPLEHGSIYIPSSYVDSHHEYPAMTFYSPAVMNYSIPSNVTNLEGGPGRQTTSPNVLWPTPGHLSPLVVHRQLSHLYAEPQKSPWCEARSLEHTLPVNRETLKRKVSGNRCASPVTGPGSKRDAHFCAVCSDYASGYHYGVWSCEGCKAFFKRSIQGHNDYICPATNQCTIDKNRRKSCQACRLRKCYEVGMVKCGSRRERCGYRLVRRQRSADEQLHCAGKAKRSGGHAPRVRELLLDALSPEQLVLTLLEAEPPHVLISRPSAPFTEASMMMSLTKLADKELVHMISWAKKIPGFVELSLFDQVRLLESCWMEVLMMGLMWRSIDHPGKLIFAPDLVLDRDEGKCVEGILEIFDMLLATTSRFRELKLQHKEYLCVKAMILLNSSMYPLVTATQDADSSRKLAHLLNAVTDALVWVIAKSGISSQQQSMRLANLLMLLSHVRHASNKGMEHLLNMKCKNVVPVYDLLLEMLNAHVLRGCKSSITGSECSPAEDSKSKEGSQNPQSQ

CC(C)C[C@H](NC(=O)[C@H](CC(C)C)NC(=O)[C@H](CCC(N)=O)NC(=O)[C@H](CCC(=O)O)NC(=O)[C@@H](N)CC(C)C)C(=O)O [AML-I-22, H-Leu-Glu-Gln-Leu-Leu-OH]
Ki: 201 µM

Source: patent US20050054770A1, “Helicomimetics and stabilized lxxll peptidomimetics” (priority 2001, published 2005)
